Measured values: PMC10488149 (International Journal of Molecular Sciences, 2023)
pKd: −log10 of the molar value.

Amino acid sequences for entries named in this document (tags omitted). Residues count along the entry.
UniProt P02763, 19-201: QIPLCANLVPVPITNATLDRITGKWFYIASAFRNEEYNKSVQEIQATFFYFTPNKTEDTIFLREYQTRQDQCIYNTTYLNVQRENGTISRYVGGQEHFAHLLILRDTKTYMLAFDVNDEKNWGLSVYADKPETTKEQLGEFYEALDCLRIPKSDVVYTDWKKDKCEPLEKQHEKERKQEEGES

Legend:
[1] = target: T1, α1-acid glycoprotein (AGP) (Homo sapiens, UniProt P02763); assay: in vitro; conditions: Kd by CD far-UV (180–260), CD at 195 nm versus ligand concentration, Hill equation, unit from b19 and Figure 5
[2] = target: T1, α1-acid glycoprotein (AGP); assay type: binding; conditions: AGP with ligand
Description: The Hill fitting was performed with OriginLab.
The evaluation of molar enthalpies (ΔHm) and entropies (ΔSm) at the melting temperature for the melting process was calculated assuming a two-state native-to-unfolded model. The molar ratios at different temperatures were determined using the linear extrapolations of plateau at T >> Tm and T << Tm for the Boltzmann fitting curves, assuming that only denatured protein was present at T >> Tm and only native at T << Tm. The reversibility was assumed to be around Tm ± 5 °C, and the relative molar ratios for native and denatured species was used to determine the equilibrium constants and the associated Gibbs free energy (ΔGm, from ΔGm = −RT·lnK). Following the given relationship, ΔGm was supposed to be ~0 at the Tm (K^(Tm) ~ 1). ΔHm and ΔSm were calculated at Tm by interpolating with a linear model the ±5 °C region of the ΔGm vs. T curve around Tm, assuming the intercept corresponding to ΔHm, previous correction from °C to Kelvin, and the slope to −ΔSm, assuming a y = a − bx model, where ΔGm^(Tm) = ΔHm^(Tm) − TmΔSm^(Tm) at ΔGm^(Tm) = 0.
For the thermal denaturations, Boltzmann fitting with the equation y = y0 + A * (frac/(1 + exp ((x − x01)/k1)) + (1 − frac)/(1 + exp((x − x02)/k2))) was used. The SRCD spectra as a function of temperature were recorded with B23 module B with synchrotron operation at 300 or 350 mA, using rotating cell for thermal denaturation with 0.02 cm cell pathlength, 0.5 mm slit, 1 sec integration time, and 1 nm increment in the 260–180 nm spectral region.

Structure (SMILES): Cc1c(N)nc([C@H](CC(N)=O)NC[C@H](N)C(N)=O)nc1C(=O)N[C@H](C(=O)N[C@H](C)[C@@H](O)[C@H](C)C(=O)N[C@H](C(=O)NCCc1nc(-c2nc(C(=O)NCCC[S+](C)C)cs2)cs1)[C@@H](C)O)[C@@H](O[C@@H]1O[C@@H](CO)[C@@H](O)[C@H](O)[C@@H]1O[C@H]1O[C@H](CO)[C@@H](O)[C@H](OC(N)=O)[C@@H]1O)c1c[nH]cn1 [A2, bleomycin A2]
- pKd [1]: 5.87
- Tm (°C) [A] ([2]; Boltzmann fitting of experimental data, 195 nm, AGP alone 52.3): 59.4 °C
- Tm (°C) [B] ([2]; T at which ΔGm,Tm = 0, 195 nm, AGP alone 52.9): 59.5 °C
- ΔHm, Tm ([2]; linear fitting around Tm, AGP alone 127.8): 239.6 kJ^.mol^−1
- ΔSm, Tm ([2]; linear fitting around Tm, AGP alone 392.1): 720.6 J·K^−1·mol^−1
